Measured affinities in a library of Ab-14 heavy chain variants

The measurements come from Engelhart et al. 2022 (doi:10.1038/s41597-022-01779-4) through the FLAb antibody collection.

Target peptide (SARS-CoV-2 spike, HR2 region): PDVDLGDISGINAS

The variants keep the light chain, the linker and the frameworks of Ab-14 (scFv order VH, a (GGGGS)3 linker, VL).
VH: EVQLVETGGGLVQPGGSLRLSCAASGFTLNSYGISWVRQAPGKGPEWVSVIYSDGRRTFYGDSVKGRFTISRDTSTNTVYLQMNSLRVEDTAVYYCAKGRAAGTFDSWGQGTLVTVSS
VL: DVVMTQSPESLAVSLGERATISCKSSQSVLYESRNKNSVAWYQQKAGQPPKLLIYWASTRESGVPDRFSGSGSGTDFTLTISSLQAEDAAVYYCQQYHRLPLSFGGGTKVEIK

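Library AAYL49 holds single substitutions and randomly drawn double and triple substitutions in the CDRs. The scFvs were displayed on barcoded MATa yeast, the peptide on MATalpha yeast. The frequency of each diploid, read from paired DNA barcodes, reflects how well the two displayed proteins bind. The ratio of observed to expected reads was calibrated, replicate by replicate, on BCL2-family standards whose Kd was known from biolayer interferometry. Mating was done three times.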

Substitutions are numbered in sequence along the VH above, starting at 1 (not Kabat).
Affinities are written as log10 Kd with Kd in nM; a lower number is a better binder.
Replicates are averaged; those with no signal do not enter the mean.
"not detected" means that the variant was in the library but no mating with the target was seen in any replicate; the authors take this as a sign of poor binding, and no number exists.

changes | log10 Kd (nM), mean | detected
I51S+F59H+T104V | not detected | 0/3
S35A+F59G+S63G | not detected | 0/3
D54R+T58R+S107I | not detected | 0/3
S31C+Y32M+A101T | 2.84 | 3/3
L29A+F105A | 3.80 | 2/3
Y32D+G33V+G55M | 5.83 | 1/3
F27R+D54N+T104H | 4.45 | 2/3
Y32N+S63C+A102S | 3.33 | 1/3
G26S+I34P+T104H | 5.20 | 2/3
S35T+Y60M+D106G | 2.63 | 1/3
I51A+R56C+G103C | not detected | 0/3
K65T+G103N+D106Q | not detected | 0/3
S35N+I51Y+D62Q | not detected | 0/3
L29F+S53R+R100Y | 5.24 | 2/3
G61M+K65T+T104L | not detected | 0/3
L29Y+Y32V+R100D | 0.73 | 3/3
S53Q+R57G+S63H | not detected | 0/3
G26L+F27E+Y52W | 2.95 | 2/3
L29R+F105Y | 3.94 | 2/3
F27N+R57N+S107T | 3.38 | 3/3
D54P+R56L+T104L | not detected | 0/3
G26E+G55I+G61H | not detected | 0/3
S63F+A102C | not detected | 0/3
S35Q+R100M+G103M | 4.78 | 1/3
Y60C+A102I | not detected | 0/3
I51Q+T104N+S107W | not detected | 0/3
R57W+A102I+G103E | not detected | 0/3
S35R+Y52Q+A101M | not detected | 0/3
Y32K+S35W+V64W | 3.98 | 1/3
I51W+K65S+A101D | not detected | 0/3
R100G+S107I | 2.31 | 3/3
S35L+R57L+A102C | not detected | 0/3
G26Q+S53F+V64G | 2.78 | 1/3
R56C+R100G+G103H | 1.73 | 3/3
T28N+R57L+G99V | not detected | 0/3
T28W+T58S+R100C | not detected | 0/3
G33Y+Y60N+F105K | not detected | 0/3
Y32A+D62V | not detected | 0/3
G33T+I51A+S107E | not detected | 0/3
V50D+G61N | not detected | 0/3
Y32S+V64I+F105H | not detected | 0/3
S35Q+I51T+A102R | 4.49 | 2/3
Y32D+S35A | 4.41 | 1/3
N30Q+A101P+F105T | not detected | 0/3
R57N+T58L+G99S | not detected | 0/3
D54F+G55C+T58A | 4.72 | 1/3
G26F+S63W+K65A | 4.81 | 2/3
R56L+F59I+T104G | 3.99 | 2/3
V50K+Y60I | not detected | 0/3
G61A+D106R+S107D | 0.85 | 3/3
Y60D+S63H+D106E | 5.59 | 1/3
S31N+S53V+A102M | not detected | 0/3
Y32R+G103T+F105M | 3.77 | 2/3
G26N+R56K+S63D | 2.68 | 3/3
S35Y+Y52C+G55K | not detected | 0/3
S31A+V64A+T104I | 4.97 | 2/3
D54S+G61C+D62H | not detected | 0/3
Y52S+V64P+D106L | not detected | 0/3
L29I+N30D+A101E | 0.61 | 3/3
Y60S+G99R+G103P | 4.00 | 3/3
N30L+S31A+T104M | 1.81 | 3/3
R56I+F59K+A102I | not detected | 0/3
I34R+I51C+T104Q | 4.18 | 2/3
V50M+G55V | not detected | 0/3
Y60D+G103A+T104N | not detected | 0/3
I34P+Y52A+D62H | not detected | 0/3
G33S+T58D+Y60S | 4.60 | 1/3
F59N+G61Q+R100E | 0.98 | 3/3
I34Y+V64P+D106F | not detected | 0/3
R57G+T104N+S107I | not detected | 0/3
G33Q+R57Q+A102L | 4.41 | 3/3
L29T+I51P+S63W | not detected | 0/3
S31Y+F59K+G103Q | not detected | 0/3
T28W+G55E+T58C | not detected | 0/3
T28A+R56W+F105T | not detected | 0/3
S35M+R57K+D62W | 4.71 | 3/3

From the list, the first 8 with no signal in any replicate:

changes | log10 Kd (nM), mean | detected
I51S+F59H+T104V | not detected | 0/3
S35A+F59G+S63G | not detected | 0/3
D54R+T58R+S107I | not detected | 0/3
I51A+R56C+G103C | not detected | 0/3
K65T+G103N+D106Q | not detected | 0/3
S35N+I51Y+D62Q | not detected | 0/3
G61M+K65T+T104L | not detected | 0/3
S53Q+R57G+S63H | not detected | 0/3

Background: pairings of library AAYL49 with three empty control strains gave a value in 15% of cases (median 4.06, 5th percentile 2.83). Values in that range, when seen in few replicates, are hard to tell from nonspecific mating.